ChEMBL document CHEMBL4321874, “Discovery of a Novel, Highly Potent, and Selective Thieno[3,2-d]pyrimidinone-Based Cdc7 Inhibitor with a Quinuclidine Moiety (TAK-931) as an Orally Active Investigational Antitumor Agent” (J Med Chem, 2020)

Chains of the proteins cited; added tags and fusions are not shown. Lines headed by an entry give the natural chain unless they say otherwise; changes in a name come on top.
UniProt O00311: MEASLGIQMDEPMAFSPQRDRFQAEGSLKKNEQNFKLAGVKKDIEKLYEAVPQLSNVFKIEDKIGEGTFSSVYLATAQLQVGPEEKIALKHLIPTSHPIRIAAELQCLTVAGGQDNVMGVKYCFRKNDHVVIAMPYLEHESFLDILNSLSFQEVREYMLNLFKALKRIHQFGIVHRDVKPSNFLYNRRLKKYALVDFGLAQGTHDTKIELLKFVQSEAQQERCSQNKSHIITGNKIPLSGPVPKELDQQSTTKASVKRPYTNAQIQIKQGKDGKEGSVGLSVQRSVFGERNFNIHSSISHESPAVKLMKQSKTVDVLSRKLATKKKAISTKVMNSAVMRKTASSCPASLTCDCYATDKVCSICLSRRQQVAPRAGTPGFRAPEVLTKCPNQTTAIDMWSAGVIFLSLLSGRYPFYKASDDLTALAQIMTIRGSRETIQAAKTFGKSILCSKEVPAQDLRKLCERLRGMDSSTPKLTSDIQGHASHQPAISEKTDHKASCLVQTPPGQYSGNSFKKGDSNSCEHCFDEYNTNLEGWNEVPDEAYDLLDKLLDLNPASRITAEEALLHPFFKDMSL

Legend:
[1] = target: T1, Cell division cycle 7-related protein kinase (Homo sapiens, UniProt O00311); test: Binding affinity to CDC7 (unknown origin) assessed as residence time
[2] = target: T1, Cell division cycle 7-related protein kinase; test: Inhibition of ATP-specific reporter probe binding to CDC7 (unknown origin) assessed as residence time incubated for 60 mins by proteros reporter displacement assay
Homo sapiens = species on record: Homo sapiens; test: Selectivity ratio of IC50 for recombinant full-length human GST-tagged DYRK1A expressed in baculovirus expression system to IC50 for N-terminal GST-fused full-length human CDC7 (1 to 574 end residues)/DBF4 (1 to 674 residues) expressed in baculovirus expression system

TIME [2] | Ratio IC50 (Homo sapiens) | Structure (SMILES) | TIME [1]
– | – | Cc1n[nH]cc1-c1cc2nc([C@@H]3CC4CCN3CC4)[nH]c(=O)c2s1 [SIMUROSERTIB] | 0.433 h
0.567 h | – | Cc1n[nH]cc1-c1cc2nc(CN3CCCC3)[nH]c(=O)c2s1 | –
0.433 h | 134 | Cc1n[nH]cc1-c1cc2nc([C@@H]3CCCCN3)[nH]c(=O)c2s1 | –
